Experiment: Pharmacokinetics after oral administration of tablets in beagle dogs
Assay type: in vivo
Settings: pentagastrin pretreatment, read-out: Cmax, mean (RSD)
Protocol: A series of in vivo experiments were conducted to evaluate the potential benefit of the solid dispersion approach relative to conventional formulations, as well as to optimize the solid dispersion by identifying the most beneficial polymer type and relative polymer concentration within the dispersion.
Pentagastrin is a synthetic polypeptide that stimulates the secretion of gastric acid, pepsin, and intrinsic factor. […]

For COC(=O)N[C@H](C(=O)N1CC2(CC2)C[C@H]1c1ncc(-c2ccc3c(c2)C(F)(F)c2cc(-c4ccc5nc([C@@H]6[C@H]7CC[C@H](C7)N6C(=O)[C@@H](NC(=O)OC)C(C)C)[nH]c5c4)ccc2-3)[nH]1)C(C)C.O=C(O)C(O)C(O)C(=O)O [Crystalline D-tartrate], which Cmax is on record?
The Cmax was 665 nM.
